Results on 3 compounds are retold here after patent publication US20210261561A1, “BICYCLIC HETEROCYCLE DERIVATIVES HAVING SELECTIVE BACE1 INHIBITORY ACTIVITY” (SHIONOGI & CO., LTD., priority 2018, published 2021).

Chains of the proteins cited; added tags and fusions are not shown. Residues count along the entry.
UniProt P56817, 46-501 limits assumed: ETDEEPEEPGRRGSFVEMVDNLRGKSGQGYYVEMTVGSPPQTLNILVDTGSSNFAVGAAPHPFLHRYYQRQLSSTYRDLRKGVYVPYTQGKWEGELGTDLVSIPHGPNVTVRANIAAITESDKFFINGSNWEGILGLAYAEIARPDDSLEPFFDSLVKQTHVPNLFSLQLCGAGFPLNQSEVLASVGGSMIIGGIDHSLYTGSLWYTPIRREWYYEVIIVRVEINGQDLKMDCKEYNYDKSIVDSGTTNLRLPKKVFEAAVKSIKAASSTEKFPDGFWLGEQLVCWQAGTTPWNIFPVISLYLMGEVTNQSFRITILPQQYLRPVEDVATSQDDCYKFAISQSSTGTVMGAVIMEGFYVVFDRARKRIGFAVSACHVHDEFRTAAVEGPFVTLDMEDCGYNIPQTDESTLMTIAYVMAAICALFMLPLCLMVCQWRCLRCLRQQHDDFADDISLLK
UniProt Q9Y5Z0, 63-518 limits assumed: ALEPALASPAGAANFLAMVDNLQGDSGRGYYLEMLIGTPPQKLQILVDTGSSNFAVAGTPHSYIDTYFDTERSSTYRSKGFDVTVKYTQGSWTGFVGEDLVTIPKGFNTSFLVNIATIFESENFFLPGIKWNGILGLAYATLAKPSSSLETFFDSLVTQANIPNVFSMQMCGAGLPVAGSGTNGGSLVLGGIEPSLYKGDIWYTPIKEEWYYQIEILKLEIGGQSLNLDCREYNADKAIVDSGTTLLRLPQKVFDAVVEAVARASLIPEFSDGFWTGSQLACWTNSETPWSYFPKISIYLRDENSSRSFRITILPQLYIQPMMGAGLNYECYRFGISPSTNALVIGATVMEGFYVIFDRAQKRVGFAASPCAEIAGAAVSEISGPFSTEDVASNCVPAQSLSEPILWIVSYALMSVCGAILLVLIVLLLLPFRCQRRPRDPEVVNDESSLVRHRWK
UniProt Q9JL18, 63-514 limits assumed: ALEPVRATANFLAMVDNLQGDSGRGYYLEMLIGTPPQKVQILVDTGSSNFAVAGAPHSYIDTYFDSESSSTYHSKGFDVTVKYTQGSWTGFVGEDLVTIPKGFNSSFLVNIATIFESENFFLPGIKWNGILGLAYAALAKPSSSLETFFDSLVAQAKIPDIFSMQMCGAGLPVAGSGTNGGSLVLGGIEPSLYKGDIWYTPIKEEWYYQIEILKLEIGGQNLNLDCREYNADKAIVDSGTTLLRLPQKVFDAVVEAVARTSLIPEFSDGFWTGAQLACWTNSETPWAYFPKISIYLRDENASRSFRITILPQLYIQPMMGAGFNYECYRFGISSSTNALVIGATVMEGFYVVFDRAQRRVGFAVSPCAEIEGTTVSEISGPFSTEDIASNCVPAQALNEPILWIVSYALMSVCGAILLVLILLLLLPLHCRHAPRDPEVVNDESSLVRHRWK

In assay [1] the target is T1, BACE1 (Homo sapiens, UniProt P56817). The assay is described as follows: BACE1 biochemical FRET based assay (Test Example 2-1). Particulars: for selectivity: BACE2 IC50 over BACE1 IC50 (FRET); for IC50: read-out: BACE1 IC50, FRET, 0.04 μg/mL BACE1, 450 minutes, Citrate buffer pH 5.0. From the text:
(§1) This assay is a Fluorescence Resonance Energy Transfer Assay (FRET) based assay. The substrate for this assay is an APP derived 13 amino acids peptide that contains the ‘Swedish’ Lys-Met/Asn-Leu mutation of the amyloid precursor protein (APP) beta-site secretase cleavage site. This substrate also contains two fluorophores: (7-methoxycoumarin-4-yl) acetic acid (Mca) is a fluorescent donor with excitation wavelength at 320 nm and emission at 405 nm and 2,4-dinitrophenol (Dnp) is a proprietary quencher acceptor. […] Upon cleavage by BACE1, the fluorophore Mca is separated from the quenching group Dnp, restoring the full fluorescence yield of the donor. The increase in fluorescence is linearly related to the rate of proteolysis.
(§2) Briefly in a 384-well format recombinant BACE1 protein in a final concentration of 0.04 μg/mL is incubated for 450 minutes at room temperature with […] substrate in incubation buffer (final concentrations: 33.3 mM Citrate buffer pH 5.0, 0.033% PEG, 3% DMSO) in the absence or presence of compound. Next the amount of proteolysis is directly measured by fluorescence measurement at T=0′-120′ and T=450′ (excitation at 320 nm and emission at 405 nm). Results are expressed in RFU (Relative Fluorescence Units), as difference between T450 and Tx (Tx is chosen depending on the reaction speed between 0 and 120 minutes.).
A best-fit curve is fitted by a minimum sum of squares method to the plot of % Controlmin versus compound concentration. From this an IC50 value (inhibitory concentration causing 50% inhibition of activity) can be obtained.

In assay [2] the target is T2, BACE2 (Homo sapiens, UniProt Q9Y5Z0). The assay is described as follows: BACE2 biochemical FRET based assay (Test Example 2-1 (2)). Particulars: read-out: BACE2 IC50, 0.4 μg/mL BACE2, 450 minutes, Citrate buffer pH 5.0. From the text: This assay is a Fluorescence Resonance Energy Transfer Assay (FRET) based assay. The substrate for this assay contains the ‘Swedish’ Lys-Met/Asn-Leu mutation of the amyloid precursor protein (APP) beta-secretase cleavage site. This substrate also contains two fluorophores: (7-methoxycoumarin-4-yl) acetic acid (Mca) is a fluorescent donor with excitation wavelength at 320 nm and emission at 405 nm and 2,4-dinitrophenol (Dnp) is a proprietary quencher acceptor. […] Upon cleavage by the beta-secretase, the fluorophore Mca is separated from the quenching group Dnp, restoring the full fluorescence yield of the donor. The increase in fluorescence is linearly related to the rate of proteolysis. Briefly in a 384-well format recombinant BACE2 protein in a final concentration of 0.4 μg/mL was incubated for 450 minutes at room temperature with 10 μM substrate in incubation buffer (final concentrations: 33.3 mM Citrate buffer pH 5.0, 0.033% PEG, 2% DMSO) in the absence or presence of compound. Next the amount of proteolysis was directly measured by fluorescence measurement at T=0 and T=450 (excitation at 320 nm and emission at 405 nm). Results were expressed in RFU (Relative Fluorescence Units), as difference between T450 and TO.
A best-fit curve was fitted by a minimum sum of squares method to the plot of % Controlmin versus compound concentration. […]

Assay [3] has as its target T1, BACE1. Description: BACE1 biochemical competitive radioligand binding assay (Test Example 1-1/1-2). Particulars: read-out: Binding BACE1 Ki; competition with tritiated non-selective BACE1/BACE2 inhibitor, BACE1-containing HEK 293 derived membrane, pH 6.2. Here is the method: (§3) To explore the BACE1 versus BACE2 enzyme selectivity, the binding affinity (Ki) to the respective purified enzymes was determined in a competitive radioligand binding assay, i.e. in competition with a tritiated non-selective BACE1/BACE2 inhibitor.
(§4) Briefly in test tubes, compounds of interest were combined with the radioligand and the BACE1 or BACE2-containing HEK 293 derived membrane. The competitive binding reaction was performed at pH 6.2 and incubated at room temperature until the equilibrium was reached. Afterwards free radioligand was separated from bound radioligand by filtration with a Brandell 96 harvester. The filter was washed 4 times with washing buffer and the filter sheets were punched into scintillation vials. Ultima Gold scintillation cocktail was added and samples were shaken. The day after, the vials were counted in a Tricarb scintillation counter to obtain the disintegrations per minute (dpm) of the bound radioligand.
(§5) Calculating the % CTL=(sample/HC)*100, with HC being the high control, i.e. total binding of radioligand, allowed to fit curves through the data points of the different doses of test compound. The pIC50 or IC50 was calculated and could be converted to Ki by the formula Ki=IC50/(1+([RL]/Kd)), with [RL] being the used concentration of radioligand and Kd the determinated dissociation constant of the radioligand-membrane complex. […]

Assay [4] concerns the target T2, BACE2. The assay is described as follows: BACE2 biochemical competitive radioligand binding assay (Test Example 1-1/1-2). Particulars: read-out: Binding BACE2 Ki; competition with tritiated non-selective BACE1/BACE2 inhibitor, BACE2-containing HEK 293 derived membrane, pH 6.2. Here is the method: as §3, §4, §5
The target of assay [5] is T1, BACE1. Description: BACE1 biochemical FRET based assay - Method 1 (Test Example 2-2). Particulars: 0.04 μg/mL BACE1, 450 minutes, Citrate buffer pH 5.0.
Excerpt: as §1
as §2, with “minutes.). […]” for “minutes.).”

Assay [6] concerns the target T1, BACE1. The assay is described as follows: BACE1 cellular αLisa assay in SKNBE2 cells, Abeta 1-42 (Test Example 2-3). The note with it: SKNBE2 cells expressing hAPP695, 18 hours incubation. As for the experimental part:
In two αLisa assays the levels of Abeta 1-42 or Abeta total produced and secreted into the medium of human neuroblastoma SKNBE2 cells are quantified. The assays are based on the human neuroblastoma SKNBE2 expressing the wild type Amyloid Precursor Protein (hAPP695). The compounds are diluted and added to these cells, incubated for 18 hours and then measurements of Abeta 1-42 or Abeta total are taken. Abeta 1-42 or Abeta total are measured by sandwich αLisa using biotinylated antibody AbN/25 attached to streptavidin coated donor beads and antibody cAb42/26 or Ab 4G8 conjugated acceptor beads for the detection of Abeta 1-42 or Abeta total respectively. In the presence of Abeta 1-42 or Abeta total, the beads come into close proximity. The excitation of the donor beads provokes the release of singlet oxygen molecules that trigger a cascade of energy transfer in the acceptor beads, resulting in light emission. Light emission is measured after 1 h incubation (excitation at […] and emission at 615 nm).
(§6) Data are analysed using Screener (Registered trademark) (Genedata, Switzerland). Data were normalized and % inhibition=100−[(sample−LC)/(HC−LC))*100], was plotted versus the log concentration of the test compound. Curves were analysed using non-linear regression analysis and IC50 values (inhibitory concentration causing 50% inhibition of activity) were derived from individual curves. […]

In assay [7] the target is T2, BACE2. The assay is described as follows: BACE2 biochemical FRET based assay (Test Example 2-4). Particulars: recombinant BACE2 0.4 μg/mL, 10 μM substrate, 450 minutes, pH 5.0.
Excerpt: as §1, with “assay” for “assay is an APP derived 13 amino acids peptide that”, “beta-secretase” for “beta-site secretase”, “the beta-secretase,” for “BACE1,”
Briefly in a 384-well format recombinant BACE2 protein in a final concentration of 0.4 μg/mL is incubated for 450 minutes at room temperature with 10 μM substrate in incubation buffer (final concentrations: 33.3 mM Citrate buffer pH 5.0, 0.033% PEG, 2% DMSO) in the absence or presence of compound. Next the amount of proteolysis is directly measured by fluorescence measurement at T=0 and T=450 (excitation at 320 nm and emission at 405 nm). Results are expressed in RFU (Relative Fluorescence Units), as difference between T450 and TO.
Data are analysed using Screener (Registered trademark) (Genedata, Switzerland). […]

The target in assay [8] is BACE2 (Mus musculus, UniProt Q9JL18). The assay is described as follows: BACE2 cellular assay in MIN6 cells, secreted TMEM27 (Test Example 2-5). Particulars: 24 hours incubation, secreted TMEM27 by MSD. Here is the method:
Cellular BACE2 activity was measured by determination of the level of secreted TMEM27 into the medium of MIN6 cells using an MSD platform. The assay is based on the mouse insulinoma MIN6 cells expressing Flag-V5-TMEM27-HA. When BACE2 cleaves TMEM27 the N-terminal part of TMEM27 with the V5-Flag tag will be shed into the medium, and the amount of this cleaved product is measured with the MSD assay.
Briefly in a 96-well format the cells are incubated for 24 hours in the presence of the compound followed by the measurement of secreted TMEM27 in the medium via MSD using FLAG-L5 coating antibody and a V5 detection antibody. When TMEM27 is captured on the electrode surface of the multi-array microplate the detection antibody, conjugated with the sulfo-Tag™, is in close proximity of the surface, it generates a light via a series of reduction and oxidation reactions. The intensity of the emitted light is measured with the MSD imager to provide a quantitative measure for the analytes in the sample.
as §6

Regarding `CN1C(N)=N[C@](C)(c2cc(NC(=O)c3ncc4c(c3Cl)OC(F)(F)O4)ccc2F)CS1(=O)=O`, on BACE1 [1], the selectivity was 17.4 and the IC50 stood at 3.2 nM. The IC50 on BACE2 [2] worked out at 55 nM.
For `Cc1c(C(=O)Nc2ccc(F)c([C@]3(C)CS(=O)(=O)N(C)C(N)=N3)c2)ncc2c1OC(F)(F)O2`, the selectivity at BACE1 [1] amounted to 14.1. Further, the IC50 at BACE1 [1] worked out at 4.1 nM; on BACE2 [2] it was 57.5 nM.
Take `[2H]C1([2H])Oc2cnc(C(=O)Nc3ccc(F)c([C@]4(CF)CC[C@@](C)(S(=O)(=O)CC)C(N)=N4)c3)cc2OC1([2H])[2H]`: the Ki was found to be 0.14 nM on BACE1 [3] and 63 nM at BACE2 [4]. Further, the “BACE1 Biochemical FRET based assay - Method 1 PIC50” value at BACE1 [5] is recorded as 8.75. Also, the “Cellular αLisa assay in SKNBE2 cells Abeta 42 pIC50” value at BACE1 [6] turned out to be 8.54. Moreover, the “BACE2 Biochemical FRET based assay pIC50” value at BACE2 [7] turned out to be 6.5. For the same compound, on BACE2 [8], the “Cellular MSD assay in Min6 cells TV1EV127 pIC50” value is on record as 6.52.

A word on the Ki: it is a dissociation constant, usually derived from enzyme kinetics or from competition with a known ligand.
